From US9074188B2, “Cardiomyocyte- and/or cardiac progenitor cell-proliferating agent and method for proliferating cardiomyocytes and/or cardiac progenitor cells” (KYOTO UNIVERSITY, priority 2010, dated 2015)

Columns and labels:
[1] = system: cardiomyocytes derived from the human iPS cell line 253G1; experiment: Number of troponin T type 2 (cTnT)-positive cells, cardiomyocytes derived from human iPS cells; type: cell-based; settings: agent added for 4 days; FIG. 5a
[2] = system: cardiomyocytes derived from the human iPS cell line 253G1; experiment: Positive rate of EdU by immunostaining, cardiomyocytes derived from human iPS cells; settings: agent added for 4 days, FIG. 5b

SMILES	number of troponin T type 2 (cTnT)-positive cells compared to the control [1]	positive rate of EdU [2] [%]
O=C1Nc2cc(Br)ccc2/C1=C1/Nc2ccccc2/C1=N\O [BIO, 6-bromoindirubin 3′-oxime]	relatively larger	–
CC(C)c1cc(/C=C(\C#N)C(=O)NCCCc2ccccc2)cc(C(C)C)c1O [SU1498, (E)-3-(3,5-diisopropyl-4-hydroxyphenyl)-2-[(3-phenyl-n-propyl)aminocarbonyl]acrylonitrile]	relatively larger	14.3±0.4
